The target in the assay is hCD40L-Fc. The assay can be described thus: Octet BLI. In general terms: Biolayer interferometry detects binding as a change in optical thickness at a sensor tip.

B1: hCD40-his (receptor)
chain: EPPTACREKQYLINSQCCSLCQPGQKLVSDCTEFTETECLPCGESEFLDTWNRETHCHQHKYCDPNLGLRVQQKGTSETDTICTCEEGWHCTSEACESCVLHRSCSPGFGVKQIATGVSDTICEPCPVGFFSNVSSAFEKCHPWTSCETKDLVVQQAGTNKTDVVCGPQDRLR
One may read the Kd as a measure of binding affinity in units of concentration. A lower Kd goes with higher affinity. In the case of B1, the affinity, expressed as Kd, was 2.42 nM.

Source of the values: patent US20200123214A1 (published 2020).
